Test results published in paper PMC9939733, “Natural and synthetic 2-oxoglutarate derivatives are substrates for oncogenic variants of human isocitrate dehydrogenase 1 and 2” (The Journal of Biological Chemistry, 2023).

The chains behind the UniProt entries cited, without tags or fusion partners.
UniProt O75874, whole entry R132C/S280F: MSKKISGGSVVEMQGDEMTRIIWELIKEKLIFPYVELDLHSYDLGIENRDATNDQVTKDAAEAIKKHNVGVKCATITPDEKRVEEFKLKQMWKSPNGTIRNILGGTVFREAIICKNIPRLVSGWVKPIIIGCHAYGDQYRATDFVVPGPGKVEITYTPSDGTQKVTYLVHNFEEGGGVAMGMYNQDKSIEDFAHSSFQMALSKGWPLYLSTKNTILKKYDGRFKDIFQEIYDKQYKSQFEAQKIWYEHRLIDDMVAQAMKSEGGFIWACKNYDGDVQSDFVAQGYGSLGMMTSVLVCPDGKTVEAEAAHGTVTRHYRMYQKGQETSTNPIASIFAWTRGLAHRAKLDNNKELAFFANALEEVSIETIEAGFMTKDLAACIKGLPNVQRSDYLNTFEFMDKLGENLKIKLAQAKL

Target: T1, R132C/S280F IDH1 (Homo sapiens, UniProt O75874, R132C/S280F)
T1 construct: made in house
Test: Steady-state kinetics, NADPH turnover assay
Assay type: biochemical
Description: independent runs, each composed of technical duplicates (n = 2; mean ± SD); c) R132C/S280F IDH1 assays
monitoring NADPH turnover were performed as reported (3). […]

- kcatapp: 2.3 ± 0.1 s⁻¹
SMILES: O=C(O)CCC(=O)C(=O)O [2OG, 2-oxoglutarate]
